One substance from patent US20110286981A1 (ZEALAND PHARMA A S, published 2011) can be followed below.

Some results are limits rather than exact numbers.

Assay [1] has as its target human glucagon receptor (human) (UniProt P47871). Description: cell-based or functional assay.
Assay [2] concerns the target human glucagon-like peptide 1 receptor (human) (UniProt P43220). The experiment in a line: cell-based or functional assay.

In the case of “Exendin-4 (from UniProt P26349) (peptide)”, in assay [1], the GLUR EC50 (cAMP formation in HEK293 cells expressing human Glucagon-R) is above 1000 nmol. Further, the GLP-1R EC50 (cAMP formation in HEK293 cells expressing human GLP-1-R) in assay [2] stood at 0.02 nmol.
